# Antibody variant affinities, Ab-14 light chain, assay B

From the AlphaSeq antibody data of Li et al. 2023 (doi:10.1038/s41467-023-39022-2), copy in the FLAb collection.

The target is the same throughout: PDVDLGDISGINAS, from the HR2 region of SARS-CoV-2 spike.

The variants keep the heavy chain, the linker and the frameworks of Ab-14 (scFv order VH, a (GGGGS)3 linker, VL).
VH: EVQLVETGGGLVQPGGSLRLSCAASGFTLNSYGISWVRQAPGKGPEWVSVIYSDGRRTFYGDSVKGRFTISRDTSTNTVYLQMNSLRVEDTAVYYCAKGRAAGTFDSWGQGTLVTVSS
VL: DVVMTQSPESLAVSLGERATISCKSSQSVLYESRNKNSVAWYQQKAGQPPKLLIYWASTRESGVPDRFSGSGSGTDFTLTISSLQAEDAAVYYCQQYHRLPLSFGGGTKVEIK

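The parent was found by panning a naive human phage display library on the peptide. Designed CDR sequences, proposed from the first random library and measured here. Several design methods are mixed in this list. In AlphaSeq, yeast of one mating type display the scFv and yeast of the other type display the target. Pairs that bind mate more often; barcode pairs of the diploids are counted by sequencing. Scores were corrected for input abundance and mapped to Kd with protein pairs of known affinity run in the same pool. Each pool was mated in six replicate cultures.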

The parent's light chain CDRs are KSSQSVLYESRNKNSVA, WASTRES, QQYHRLPLS; each variant's own CDRs replace them letter for letter. Values are apparent Kd, the geometric mean of the replicates that gave a signal; lower means stronger binding. Where no diploid with the target was found in any replicate, the entry reads "no signal": below detection, most likely a poor binder, though not proof of it. The authors' rule: three or more of the six replicates give a measured affinity, fewer mean a poor binder.

CDR-L1 | CDR-L2 | CDR-L3 | Kd | detected
MISGSVMSESRLKNNVA | QTTTRES | QQYDRLPLS | 1.8 nM | 6 of 6
RLTEHMYMRAYANAAVA | DASTRND | QQYHRLPLE | 3.5 nM | 6 of 6
MLSDLVKQGLRNTNSVA | DNSTRGS | QQYDRLPLS | 54 nM | 6 of 6
KLLQSVLDESRNDNSVA | NASHRLS | QQYHRLPLS | 11 nM | 6 of 6
KLQQSVLYESRNKNSVA | NASTREM | QQYHRLPLS | 210 pM | 6 of 6
KLSQSVPYESRNKNQVA | GASTRMS | QQYHRLPLS | 1.3 nM | 6 of 6
NFGQKMALYTGQRYSIA | DHTVRAD | QQYSRLPLT | 1.8 nM | 6 of 6
KLSQSNLYESRNKNNVA | EASTRES | QQYHRLPLS | 260 pM | 6 of 6
KSSWSVLYESMNKNSVA | HASTRES | QQYHRLPLS | 96 nM | 4 of 6
KWEYSVDGESRNKNAVA | QASQREQ | QQYHRLPLS | 1.4 nM | 6 of 6
KSSQSVLYESRNKNSVA | WASRRES | QQYHRLPLS | no signal | 0 of 6
KLSQSVLYESRNKNAVA | NASTRED | QQYHRLPLS | 260 pM | 6 of 6
TISSSMLYLSNLKNSVA | QAETRES | QQYHRLPIS | 19 nM | 6 of 6
MLSMVADYSSVSKNSVA | EMETREE | QQYDRLPLI | 57 nM | 6 of 6
KMSQSVLGEQRNKNSVA | DISTRES | QQYHRLPLS | 720 pM | 6 of 6
KSSISVEYQERLINSVA | QASQRES | QQYHRLPLS | 7.3 nM | 6 of 6
MVTLQLRNGHEHQNPIA | EASHRAA | QQYAHLPLG | 55 nM | 5 of 6
KSSQSVLHESRNKNSVA | WASTRGS | QQYHRLPLS | 3.7 nM | 1 of 6
KSSQSVDYESVNKNSVA | NASTRES | QQYHRLPLS | 2.8 nM | 6 of 6
TISQVMNTLTRHGNNVA | DLAEREH | QQYFRLPLS | 4.6 nM | 6 of 6
KSMQSVLPESRNKNSVA | WASGRES | QQYHRLPLS | no signal | 0 of 6
TIGAQLMYGTRNRSNVA | EVSERLN | QQYDRLPLF | no signal | 0 of 6
KLQFSCLYESRNPNSVA | NASYRSS | QQYHRLPLS | 18 nM | 6 of 6
KSQQSVLYESRNANSVA | WAATRES | PQQERLPLS | 160 nM | 1 of 6
TLVQSVMGSSRTKNSVA | NAETREY | QHYHRLPLS | 8.1 nM | 6 of 6
HLGLATMLESSVRNSVA | NNSTREE | QQYDRLPLS | 1.5 nM | 6 of 6
KLRQSTLYESRNKNSVA | SASTRES | QQYHRLPLS | 580 pM | 6 of 6
KLSMSNLYESRNKNSVA | NASTRES | QQYHRLPLS | 1.0 nM | 6 of 6
KSSQSVLFESPNKNSVA | WASTRES | QQYHRLPWS | 810 nM | 1 of 6

The remaining entries, values ahead:

Kd | detected | CDR-L1 | CDR-L2 | CDR-L3
34 nM | 5 of 6 | KLGSMVLLEHGNMNSIA | QQSTREE | QQYDRLPLS
2.8 nM | 6 of 6 | KCQISVEQLSRQKNSVA | HASTRES | QQYHRLPLS
560 nM | 4 of 6 | KSSQSKLYVSRNKNSVA | NASTRES | CQYHRLPLS
300 nM | 4 of 6 | MLSQMTGLGQKVRNSVA | QASMRIN | QQYHRLPLI
no signal | 0 of 6 | KLFQSMLYESRNKNSLA | WASTRES | QQYHRYPLR
52 nM | 6 of 6 | KISQSVLYESRNKNSVA | AASTRES | QGYHRLPLS
11 nM | 6 of 6 | TIGQSVHETTRIKNSVA | HATMRED | QQYDRLPLS
14 nM | 6 of 6 | KLMGQGDHSIKHANSIA | NVDNVDM | QQYAHLPLS
2.2 nM | 6 of 6 | KSSQSALYYSRNKNSVA | DASTRMS | QQYHRLPLS
580 pM | 6 of 6 | KISQSQLYESRNKNSVA | NASTRES | QQYHRLPLS
2.1 nM | 6 of 6 | ALSQSTDMTSRNVNSVA | DLTTREN | QQYHRLPLS
670 pM | 6 of 6 | KFEQSVLYESRNKNSVA | NASTREQ | QQYHRLPLS
1.1 nM | 6 of 6 | KLPQSWLYESRNKNAVA | NASQRES | QQYHRLPLS
23 nM | 6 of 6 | KMTEQLLNGEREPSNIA | AQDIGSD | QQYHHLPLI
no signal | 0 of 6 | TFYQSVLYESRNKNSVA | WASTRSN | QQYHRLFLS
7.8 nM | 6 of 6 | KSSQSVLQESRNKNSVA | WASTRES | QIYHRLPLS
510 pM | 6 of 6 | KQSQSVLYESRNKNAVA | DASTRES | QLYHWLPLS
210 nM | 2 of 6 | KSSQSVSYSSRNKWSVA | QASTRES | QQYHRLPLC
1.1 nM | 5 of 6 | KLEQSQLYESRNKNSVA | NASTRES | QDYHRLPLS
1.9 nM | 6 of 6 | KLDISELGESRNWNSVA | NASQREE | QQYHRLPLS
1.1 nM | 6 of 6 | QLQIEPNGYMGMRNNVA | DGGMVRM | QQYARLPLM
2.0 nM | 6 of 6 | KISQNMGETQRNKNSVA | EVSLVPD | QQYWRLPLS
18 nM | 6 of 6 | KISMLTRVGSTHGNSIA | EEATRAK | QQYHRLPLF
820 pM | 6 of 6 | KLSCSMEYESRNKNSVA | NASTREE | QQYHRLPLS
86 nM | 5 of 6 | MISQVMNMLTHTGNNVA | DLQEREE | QQYFRLPLS
570 pM | 6 of 6 | KVSQSWLYESRNKNSVA | NGSTRES | QQYHRLPLS
43 nM | 5 of 6 | KMMQSVYFESRNKNSVA | WASTREL | QQYHRLPLS
160 nM | 4 of 6 | TIGQVMHYESRDKNSVA | QTSTREE | QDYDRLPLS
4.3 nM | 6 of 6 | KSSISYLGEDLNKNSVA | EASTRES | QQYHRLPLS
1.2 nM | 6 of 6 | KVSQSVLYQSRNKNSVA | DASTRES | QQYHRLPLS

The opening 8 entries, copied out:

CDR-L1	CDR-L2	CDR-L3	Kd	detected
MISGSVMSESRLKNNVA	QTTTRES	QQYDRLPLS	1.8 nM	6 of 6
RLTEHMYMRAYANAAVA	DASTRND	QQYHRLPLE	3.5 nM	6 of 6
MLSDLVKQGLRNTNSVA	DNSTRGS	QQYDRLPLS	54 nM	6 of 6
KLLQSVLDESRNDNSVA	NASHRLS	QQYHRLPLS	11 nM	6 of 6
KLQQSVLYESRNKNSVA	NASTREM	QQYHRLPLS	210 pM	6 of 6
KLSQSVPYESRNKNQVA	GASTRMS	QQYHRLPLS	1.3 nM	6 of 6
NFGQKMALYTGQRYSIA	DHTVRAD	QQYSRLPLT	1.8 nM	6 of 6
KLSQSNLYESRNKNNVA	EASTRES	QQYHRLPLS	260 pM	6 of 6

As a blank, each scFv also met three strains without target: over all light chain designs, 4% of these pairings were detected, typically at 430 nM and seldom below 38 nM. Of ten entries with the parent sequence, four were seen in most replicates (averages 2.2 nM to 240 nM), three in one and three in none, so single entries are noisy. Values of this round are not directly comparable with the first-round values of the same sequences.